These results are taken from US20140323418A1.

pIC50: −log10 of the molar value.

This experiment deals with full length active recombinant SYK enzyme (Homo sapiens, UniProt P43405). The experiment is described as follows: Inhibition of Syk tyrosine phosphorylation activity (LANCE TR-FRET kinase assay). The format is biochemical. Particulars: read-out: Syk IC50; 1 nM SYK, 550 nM substrate, 100 μM ATP, 1 hour room temperature. (In general: Time-resolved FRET reads energy transfer from a long-lived donor to a nearby acceptor.)

One may read the pIC50 as −log10 of the IC50, conventionally taken in molar units. `NC(=O)c1cnc(N[C@H]2[C@@H](N)CCCC2(F)F)nc1Nc1cccc(-n2nccn2)c1`: the pIC50 was 8.00 to 9.00.
